What was measured:
hOCT1 = molecular target: T1, hOCT1 (Homo sapiens, UniProt O15245); assay: Inhibition of hOCT1-mediated substrate uptake in transfected HEK293 cells; format: in vitro ADME; conditions: FDA criterion > 0.1
T1 sequence (O15245 1-554): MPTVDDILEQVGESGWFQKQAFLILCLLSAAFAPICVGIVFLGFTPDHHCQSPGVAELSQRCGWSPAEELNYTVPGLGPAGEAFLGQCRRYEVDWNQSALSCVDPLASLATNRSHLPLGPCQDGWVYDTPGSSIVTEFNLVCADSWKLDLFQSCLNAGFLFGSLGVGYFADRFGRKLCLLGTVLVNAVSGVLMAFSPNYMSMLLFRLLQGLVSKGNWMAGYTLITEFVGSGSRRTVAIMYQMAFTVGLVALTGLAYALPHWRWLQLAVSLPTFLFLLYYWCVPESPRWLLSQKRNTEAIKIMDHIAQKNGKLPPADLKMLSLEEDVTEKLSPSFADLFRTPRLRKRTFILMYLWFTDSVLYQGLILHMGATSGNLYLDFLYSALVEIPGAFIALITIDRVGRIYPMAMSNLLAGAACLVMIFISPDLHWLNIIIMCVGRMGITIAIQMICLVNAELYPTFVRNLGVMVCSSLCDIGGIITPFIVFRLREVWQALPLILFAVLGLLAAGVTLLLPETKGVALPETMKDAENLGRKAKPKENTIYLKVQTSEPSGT

hOCT2 = molecular target: T2, hOCT2 (Homo sapiens, UniProt O15244); assay: Inhibition of hOCT2-mediated substrate uptake in transfected HEK293 cells; format: in vitro ADME; conditions: for Fold Difference of IC50, coincubation vs preincubation, hOCT2: [14C]metformin uptake, 30-min preincubation; for unbound Cmax/IC50, hOCT2: FDA criterion > 0.1
T2 sequence (O15244 1-555): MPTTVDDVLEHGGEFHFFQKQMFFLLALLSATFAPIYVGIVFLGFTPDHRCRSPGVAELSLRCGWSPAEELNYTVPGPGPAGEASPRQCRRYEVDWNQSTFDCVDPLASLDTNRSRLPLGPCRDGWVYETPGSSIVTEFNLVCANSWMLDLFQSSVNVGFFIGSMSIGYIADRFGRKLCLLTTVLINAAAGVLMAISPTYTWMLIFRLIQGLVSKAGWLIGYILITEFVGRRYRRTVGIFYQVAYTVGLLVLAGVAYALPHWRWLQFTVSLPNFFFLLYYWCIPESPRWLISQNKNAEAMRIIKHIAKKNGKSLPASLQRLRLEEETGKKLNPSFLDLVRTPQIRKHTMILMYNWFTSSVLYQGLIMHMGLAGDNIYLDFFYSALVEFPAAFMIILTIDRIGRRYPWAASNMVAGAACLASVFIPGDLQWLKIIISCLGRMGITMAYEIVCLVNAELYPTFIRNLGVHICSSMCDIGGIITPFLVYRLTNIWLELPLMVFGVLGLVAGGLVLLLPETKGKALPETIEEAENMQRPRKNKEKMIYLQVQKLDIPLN

hOCT3 = molecular target: T3, hOCT3 (Homo sapiens, UniProt O75751); assay: Inhibition of hOCT3-mediated substrate uptake in transfected HEK293 cells; format: in vitro ADME; conditions: for unbound Cmax/IC50, hOCT3: FDA criterion > 0.1
T3 sequence (O75751 1-556): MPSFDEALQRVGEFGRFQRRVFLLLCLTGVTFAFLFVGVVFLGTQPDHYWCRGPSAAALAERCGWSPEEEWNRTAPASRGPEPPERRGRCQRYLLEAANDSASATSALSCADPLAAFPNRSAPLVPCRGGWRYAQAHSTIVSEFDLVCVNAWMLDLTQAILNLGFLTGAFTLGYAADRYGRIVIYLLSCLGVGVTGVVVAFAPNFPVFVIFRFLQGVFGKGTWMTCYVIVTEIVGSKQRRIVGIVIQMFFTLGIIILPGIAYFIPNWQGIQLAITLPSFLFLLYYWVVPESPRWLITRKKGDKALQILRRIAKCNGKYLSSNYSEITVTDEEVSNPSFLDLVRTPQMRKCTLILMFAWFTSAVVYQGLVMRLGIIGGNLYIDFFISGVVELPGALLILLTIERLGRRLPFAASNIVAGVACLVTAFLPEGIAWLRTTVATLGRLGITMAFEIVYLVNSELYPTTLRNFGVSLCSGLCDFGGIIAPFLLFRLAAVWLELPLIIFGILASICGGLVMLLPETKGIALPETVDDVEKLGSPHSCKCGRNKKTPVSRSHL

hMATE1 = molecular target: T4, hMATE1 (Homo sapiens, UniProt Q96FL8); assay: Inhibition of hMATE1-mediated substrate uptake in transfected HEK293 cells (pH 8.0); format: in vitro ADME; conditions: for unbound Cmax/IC50, hMATE1: FDA criterion > 0.1
T4 sequence (Q96FL8 1-570): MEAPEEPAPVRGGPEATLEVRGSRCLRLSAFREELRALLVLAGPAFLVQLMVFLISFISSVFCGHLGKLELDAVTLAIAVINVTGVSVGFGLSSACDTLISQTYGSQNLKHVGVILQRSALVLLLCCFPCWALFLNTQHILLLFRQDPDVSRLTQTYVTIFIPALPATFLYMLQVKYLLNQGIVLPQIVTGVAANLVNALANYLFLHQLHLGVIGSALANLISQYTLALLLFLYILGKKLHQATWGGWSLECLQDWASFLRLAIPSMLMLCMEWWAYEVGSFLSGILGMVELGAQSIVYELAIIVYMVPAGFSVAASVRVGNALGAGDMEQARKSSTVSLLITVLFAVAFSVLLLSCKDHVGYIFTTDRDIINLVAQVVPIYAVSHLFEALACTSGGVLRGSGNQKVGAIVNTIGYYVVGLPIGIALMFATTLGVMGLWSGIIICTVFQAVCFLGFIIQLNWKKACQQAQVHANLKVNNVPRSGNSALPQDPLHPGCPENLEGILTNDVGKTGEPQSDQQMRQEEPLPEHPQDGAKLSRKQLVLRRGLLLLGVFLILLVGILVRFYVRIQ

hMATE2-K = molecular target: T5, hMATE2-K (Homo sapiens, UniProt Q86VL8); assay: Inhibition of hMATE2-K-mediated substrate uptake in transfected HEK293 cells (pH 8.0); conditions: FDA criterion > 0.1
T5 sequence (Q86VL8 1-566 isoform Q86VL8-3): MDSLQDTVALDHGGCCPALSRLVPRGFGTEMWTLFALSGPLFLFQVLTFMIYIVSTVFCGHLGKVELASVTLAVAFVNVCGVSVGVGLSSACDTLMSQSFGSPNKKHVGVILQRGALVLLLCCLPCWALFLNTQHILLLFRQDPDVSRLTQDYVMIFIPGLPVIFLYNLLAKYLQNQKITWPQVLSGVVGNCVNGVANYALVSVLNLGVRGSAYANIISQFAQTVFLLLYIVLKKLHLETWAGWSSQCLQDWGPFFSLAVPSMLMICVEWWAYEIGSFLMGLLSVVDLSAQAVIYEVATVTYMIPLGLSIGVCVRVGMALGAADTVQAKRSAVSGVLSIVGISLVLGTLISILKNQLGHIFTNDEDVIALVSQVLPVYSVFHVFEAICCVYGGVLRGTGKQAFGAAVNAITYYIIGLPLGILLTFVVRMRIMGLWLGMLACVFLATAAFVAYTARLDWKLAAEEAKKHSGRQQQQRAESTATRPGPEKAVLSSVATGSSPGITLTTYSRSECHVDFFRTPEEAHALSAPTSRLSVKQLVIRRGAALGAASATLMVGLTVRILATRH

COc1cc(N2CCC(N3CCN(C)CC3)CC2)ccc1Nc1ncc(Cl)c(Nc2ccccc2P(C)(C)=O)n1 [Brigatinib]
unbound Cmax/IC50, hOCT1 (hOCT1; substrate MPP+): 0.03 | unbound Cmax/IC50, hOCT1 (hOCT1; substrate mIBG): 0.05 | unbound Cmax/IC50, hOCT1 (hOCT1; substrate metformin): 0.75 | Fold Difference of IC50, coincubation vs preincubation, hOCT2 (hOCT2): 2.3 | Fold Difference of IC50, coincubation vs preincubation, hOCT2 (hOCT2; listed as brigatinib): around two-fold | unbound Cmax/IC50, hOCT2 (hOCT2; substrate MPP+): <0.002 | unbound Cmax/IC50, hOCT2 (hOCT2; substrate mIBG): 0.005 | unbound Cmax/IC50, hOCT2 (hOCT2; substrate metformin): 0.03 | unbound Cmax/IC50, hOCT3 (hOCT3; substrate MPP+): 0.33 | selectivity: inhibition of hOCT3 more potent than of hOCT1 (hOCT3; substrate mIBG, IC50 ratio): 14 fold | selectivity: inhibition of hOCT3 more potent than of hOCT2 (hOCT3; substrate mIBG, IC50 ratio): at least 100 fold | unbound Cmax/IC50, hOCT3 (hOCT3; substrate mIBG): 0.70 | unbound Cmax/IC50, hOCT3 (hOCT3; substrate metformin): 0.99 | Fold Difference of IC50, coincubation vs preincubation, hMATE1 (hMATE1; [14C]metformin uptake, 30-min preincubation): 1.4 | unbound Cmax/IC50, hMATE1 (hMATE1; substrate MPP+): 0.42 | selectivity: inhibition of hMATE1 more potent than of hMATE2-K (hMATE1; substrate mIBG, IC50 ratio): at least 50 fold | unbound Cmax/IC50, hMATE1 (hMATE1; substrate mIBG): 0.44 | unbound Cmax/IC50, hMATE1 (hMATE1; substrate metformin): 0.51 | unbound Cmax/IC50, hMATE2-K (hMATE2-K; substrate MPP+): <0.002 | unbound Cmax/IC50, hMATE2-K (hMATE2-K; substrate mIBG): 0.004 | unbound Cmax/IC50, hMATE2-K (hMATE2-K; substrate metformin): 0.02
